From US20100292337A1, “Polar Hydrophilic Prodrugs of Amphetamine and Other Stimulants and Processes for Making and Using the Same” (priority 2007, published 2010)

Assay: Example 12: oral pharmacokinetic study of hArg-Amp vs Lys-Amp, plasma d-amphetamine by ELISA
Details: oral gavage, rat, […] d-amphetamine freebase equivalent; released d-amphetamine

`C[C@@H](Cc1ccccc1)NC(=O)[C@@H](N)CCCCN=C(N)N.Cl.Cl` [hArg-Amp, l-homoarginine-d-amphetamine dihydrochloride] gave a Tmax of 4 h.
